# According to patent publication US11331299B2, “Medicinal use of serrulatane diterpenes” (The University of Sydney, priority 2016, dated 2022):
# Tested on: human pancreatic carcinoma MIA PaCa-2
# Settings: Day 8, 80 mg/kg Q4D x 4 IP, mice No. 1-8
smiles,measurement,value
"Nc1ccn([C@@H]2O[C@H](CO)[C@@H](O)C2(F)F)c(=O)n1 [Gemcitabine, reference compound]","Tumor Volume, individual mice",114 mm3
